How the values were obtained:
Settings in all cases: 3H-CGP 12177 whole cell binding, mean ± s.e.mean
human beta3-adrenoceptor = human beta3-adrenoceptor (Homo sapiens, UniProt P13945); experiment: 3H-CGP12177 whole-cell binding, CHO cells expressing human beta3-adrenoceptor
human beta2-adrenoceptor = human beta2-adrenoceptor (Homo sapiens, UniProt P07550); experiment: 3H-CGP12177 whole-cell binding, CHO cells expressing human beta2-adrenoceptor
beta1-adrenoceptor = beta1-adrenoceptor (Homo sapiens, UniProt P08588); experiment: 3H-CGP12177 whole-cell binding, CHO cells expressing human beta1-adrenoceptor

By UniProt entry, the sequences of proteins in these tests, tags left out.
UniProt P13945, whole entry: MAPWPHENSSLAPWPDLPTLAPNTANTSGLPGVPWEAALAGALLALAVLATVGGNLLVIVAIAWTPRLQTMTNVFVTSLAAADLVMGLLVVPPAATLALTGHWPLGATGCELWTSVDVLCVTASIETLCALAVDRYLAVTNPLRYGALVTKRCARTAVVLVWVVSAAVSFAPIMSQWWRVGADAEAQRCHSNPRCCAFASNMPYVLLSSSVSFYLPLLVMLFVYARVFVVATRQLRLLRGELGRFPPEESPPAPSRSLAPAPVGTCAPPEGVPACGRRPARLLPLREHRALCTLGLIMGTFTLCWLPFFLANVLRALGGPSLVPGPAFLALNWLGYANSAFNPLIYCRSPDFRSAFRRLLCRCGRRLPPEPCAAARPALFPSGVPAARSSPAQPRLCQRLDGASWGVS
UniProt P07550, whole entry: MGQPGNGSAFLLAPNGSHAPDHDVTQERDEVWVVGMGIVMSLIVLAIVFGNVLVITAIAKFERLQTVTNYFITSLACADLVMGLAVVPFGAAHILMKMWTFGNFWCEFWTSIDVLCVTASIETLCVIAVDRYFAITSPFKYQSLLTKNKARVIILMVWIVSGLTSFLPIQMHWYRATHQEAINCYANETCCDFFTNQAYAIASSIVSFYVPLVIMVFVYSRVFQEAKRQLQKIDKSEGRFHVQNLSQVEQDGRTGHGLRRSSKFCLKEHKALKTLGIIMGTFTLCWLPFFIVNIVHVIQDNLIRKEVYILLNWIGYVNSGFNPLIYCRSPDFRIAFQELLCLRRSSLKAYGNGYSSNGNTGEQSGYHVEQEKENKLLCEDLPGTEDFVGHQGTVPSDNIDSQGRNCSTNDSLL
UniProt P08588, whole entry: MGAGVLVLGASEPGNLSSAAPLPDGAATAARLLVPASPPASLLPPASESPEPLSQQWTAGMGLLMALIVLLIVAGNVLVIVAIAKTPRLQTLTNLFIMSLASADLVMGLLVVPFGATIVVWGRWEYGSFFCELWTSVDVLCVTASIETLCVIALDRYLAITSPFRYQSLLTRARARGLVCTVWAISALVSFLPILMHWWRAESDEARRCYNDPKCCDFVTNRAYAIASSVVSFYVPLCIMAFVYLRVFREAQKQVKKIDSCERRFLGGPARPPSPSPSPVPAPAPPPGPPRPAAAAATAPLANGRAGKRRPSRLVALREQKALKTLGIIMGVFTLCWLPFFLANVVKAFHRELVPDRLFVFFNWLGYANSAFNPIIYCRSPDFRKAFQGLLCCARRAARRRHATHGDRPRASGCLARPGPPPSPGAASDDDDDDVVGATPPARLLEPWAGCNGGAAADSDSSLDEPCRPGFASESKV

Beta 3 Log KD (human beta3-adrenoceptor): −5.05 ± 0.09
Beta 2 Log KD (human beta2-adrenoceptor): −5.59 ± 0.05
Beta 1 Log KD (beta1-adrenoceptor): −8.14 ± 0.04
Compound: O=C(NCCNCC(O)COc1ccc(OCCOC2CCCC2)cc1)Nc1cccc(Cl)c1 (stereo not drawn)

Source: US20130261178A1, “PHENOXYPROPANOL DERIVATIVES AND THEIR USE IN TREATING CARDIAC AND CARDIOVASCULAR DISEASES” (priority 2010, published 2013)
